# Compound activity deposited in PubChem BioAssay by National Center for Advancing Translational Sciences (NCATS).
# ClpP mod = qHTS Assay for Activators of ClpP; AID 651965, 2013; 340,000 tested, 1.9% active; Potency, µM (top dose mostly 57.5 µM), for the others: at the highest dose activity change, negative = active; ATP-dependent Clp protease proteolytic subunit (Bacillus subtilis (strain 168)), P80244; purified B. subtilis ClpP, FRET peptide cleavage, 20 min; active = well fitted falling curve with a large enough effect; inconclusive = small, poorly fitted or top-dose-only effect; inactive = no such curve, though single readings can be large or run the other way; note: potency is the fitted concentration of half-maximal effect; the source files actives as falling curves though it sought activators and does not explain the sign; nearly all actives have a fitted effect of over 65% in size
#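 FRET quenching reversal measured ClpP activation: 10 microg/mL B. subtilis ClpP at pH 8 with the FRET-FV decapeptide, read at 430 nm after 320 nm excitation. The 20-min minus 0-min signal was scaled between DMSO/no-enzyme wells and ADEP (5.8 microM final).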
# p53 reactivation = re-activators of mutant p53. H1299 p53-A138V BP100-luciferase reporter, luminescence, 24 h. Potency, µM (highest dose often 92.2 µM), without a hit: top-dose activity change, positive = activation, most hits filed as activators. 320,000 tested, 0.063% active. AID 504706; note: potency is the fitted concentration of half-maximal effect; % of control where 0% means no effect; nearly all actives have a fitted effect of over 45% in size
#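 p53-null H1299 cells stably carrying temperature-sensitive p53-A138V and a BP100-luciferase reporter were pinned with compounds (4-point, 1:5 series) and held 24 hrs at 37 deg C. Luminescence was read 10 min after detection reagent.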
# miR-21 FLuc = raises the signal of a miR-21 reporter; HeLa miR-21 FLuc reporter, luciferase, 48 h; Potency, µM (top dose mostly 38.3 µM), for inactives: at the highest dose reporter change, positive = more light; AID 2288; 340,000 tested, under 10 active; active = well fitted rising curve with a large enough effect; inconclusive = small, poorly fitted or top-dose-only effect; inactive = no such curve, though single readings can be large or run the other way;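 note: % of control where 0% means no effect; miR-21 action dims this reporter so a rising signal means less miR-21 action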
#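 HeLa cells stably expressing CMV-driven firefly luciferase with a downstream miR-21 binding sequence, endogenously expressing miR-21, were treated with titrations (up to about 40uM final) for 48 hours at 37 degree Celsius. Luciferase luminescence was read after lysis.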
# Nrf2 activator = activators of Nrf2 (ARE) signaling. 410,000 tested, 0.31% active. AREc32 ARE-luciferase reporter (MCF7-derived line), luminescence, 24 h. Potency, µM (series often up to 46.1 µM), for the others: at the top dose activation, actives largely listed as activators. AID 624171; note: potency is the fitted concentration of half-maximal effect; % of control where 0% means no effect; nearly all actives have a fitted effect of over 65% in size
#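 Luminescent ARE reporter assay in AREc32_Fluc cells: overnight plating at 37 deg C, 24 hr compound incubation, Steady-Glo added, 30 min RT before reading.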
# A549 tox-1 = counter-screen for Nrf2 inhibitors: cytotoxicity in A549 cells; A549 ARE-Fluc cells, CellTiter-Fluor viability, 18-24 h; Potency, µM (series often up to 46 µM), for inactives: at the highest dose activity change, negative = cytotoxicity, hits mostly inhibitors; 390,000 tested, 0.16% active; note: potency is the fitted concentration of half-maximal effect; % is set by controls: 0 for no effect and ±100 for the full control effect
#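 Cytotoxicity counterscreen: CellTiter-Fluor fluorescence was measured in A549 ARE_Fluc cells after 18-24 h of compound exposure in a concentration series. The subsequent BugLite luminescent read reports ARE-luciferase activity.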
# Nrf2 block = blocks Nrf2 signaling | A549 ARE-Fluc reporter, luciferase luminescence, 18-24 h | Potency, µM (top dose mostly 46 µM), inactives show at the highest dose activity change, negative = inhibition, most hits filed as inhibitors | 360,000 tested, 2.1% active | AID 504444; note: potency is the fitted concentration of half-maximal effect; % is set by controls: 0 for no effect and ±100 for the full control effect; nearly all actives have a fitted effect of over 60% in size
#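 Nrf2 activity is the BugLite luminescence, read 15 min after reagent at room temperature, following CellTiter-Fluor cytotoxicity readout (30 min, 37C). Compound titrations were applied for 18-24 h to 5000 A549 ARE_Fluc cells/well in 5% FBS OPTI-MEM.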
# FLuc enzyme inh = blocks purified firefly luciferase in Nrf2 counterscreen; shares compounds with Nrf2 block; purified firefly luciferase, luminescence inhibition; Potency, µM (doses to about 57.5 µM), for the others: top-dose activity change, negative = inhibition, actives largely listed as inhibitors; 1,400 tested, 4% active; note: potency is the fitted concentration of half-maximal effect; % is set by controls: 0 for no effect and ±100 for the full control effect; nearly all actives have a fitted effect of over 65% in size
# A549 tox-2 = counter-screen for Nrf2 inhibitors: cytotoxicity in A549 ARE cells; 1,400 tested, 2% active; shares compounds with Nrf2 block; Potency, µM (doses to about 46.1 µM), without a hit: at the highest dose activity change, negative = cytotoxicity, hits mostly inhibitors; A549 ARE-Fluc cells, cytotoxicity counterscreen;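 note: potency is the fitted concentration of half-maximal effect; cells exposed to compounds for 18 to 24 hours; % is set by controls: 0 for no effect and ±100 for the full control effect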
# Nrf2 ARE inh = reduces Nrf2 ARE reporter signal in A549 cells; 1,400 tested, 74% active; A549 ARE-firefly luciferase reporter, luminescence; shares compounds with Nrf2 block; Potency, µM (titrated, usually from 46.1 µM), inactives show top-dose activity change, negative = inhibition, actives largely listed as inhibitors; note: potency is the fitted concentration of half-maximal effect; % is set by controls: 0 for no effect and ±100 for the full control effect; nearly all actives have a fitted effect of over 65% in size
# An asterisk follows results filed as active; ? = inconclusive; . = no result given; ! = not active in a repeat; [ ] = dose if it differs, or a comment. Shown are actives, neighbours in structure and some others; about 3.7% of the full set was active somewhere. Unless noted, calls come from the whole dose curve; as a rule, active = well fitted curve in the direction sought with a large enough effect; inconclusive = small, poorly fitted or top-dose-only effect, or another doubt; inactive = no such curve, though single readings can be large; an effect the other way counts as inactive or inconclusive.
canonical_smiles | ClpP mod | p53 reactivation | miR-21 FLuc | Nrf2 activator | A549 tox-1 | Nrf2 block | FLuc enzyme inh | A549 tox-2 | Nrf2 ARE inh
Cc1nccc(-c2cccc(N/N=C(\C#N)C(=O)c3ccccc3)c2)n1 | 0% | -1% | -3% | 0% | -17% | ? | . | . | .
N#C/C(=N\Nc1cccc(C(F)(F)F)c1)C(=O)c1ccsc1 | -2% | ? | 20% | 15% | -18% | ? | 21µM* | ? | .
CCN(CC)C(=O)c1oc2ccc(S(=O)(=O)N3CC(C)CC(C)C3)cc2c1C (stereo not given) | . | 1% | ? | 0% | 0% | 8.2µM* | 0% | -6% | 8.2µM*
CCN(Cc1ccccc1)S(=O)(=O)c1ccc(C(=O)N2CCN(c3nc4ccccc4s3)CC2)cc1 | -3% | -5% | -8% | 0% | -13% | 1.8µM* | -11% | 0% | 7.3µM*
CC(=NNC(=S)N1CC2CCC(CC2)C1)c1ccncn1 | -3% | . | . | 15% | 16µM* | 1.3µM* | 11µM* | ? | 0.37µM*
Cc1csc(C)[n+]1CCC1CCCCC1 | -1% | . | . | . | . | . | 4% | -8% | 15µM*
O=C(c1ccc2c(=O)n3c(nc2c1)CCCCC3)N1CCN(c2cccc(Cl)c2)CC1 | 0% | . | 7% | 6% | 3% | -13% | . | . | .
Fc1cccc(-n2ncc3c2ncn2nc(Cc4ccccc4)nc32)c1 | -12% | . | -5% | 7% | 8% | 20% | . | . | .
COc1ccc(OC)c(Nc2nc(-c3sc(NC(=O)C(C)(C)C)nc3C)cs2)c1 | ? | -5% | 25% | 6% | 0% | 8.2µM* | -25% | -19% | ?
COc1ccc(Cl)cc1Nc1nc(-c2sc(NC(=O)C(C)(C)C)nc2C)cs1 | -9% | 1% | ? | 0% | -2% | 4.1µM* | -20% | -9% | 1.8µM*
Cc1ccc(C(=O)Nc2ccc(Br)c(C(F)(F)F)c2)cc1 | -17% | 28% | 9% | 2% | . | 1.6µM* | 6.7µM* | -25% | .
OCC1OC(n2cnc3c(NCc4ccco4)ncnc32)C(O)C1O (stereo not given) | -3% | . | . | ? | ? | 7.3µM*! | 3% | -21% | 4.1µM*
OC[C@H]1O[C@@H](n2cnc3c(NC4CCCC4)ncnc32)[C@H](O)[C@@H]1O | 2% | 6% | -36% | 0% | -2% | -16% | . | . | .
COc1ccc(-c2csc(NC(=O)c3ccccc3NS(=O)(=O)c3ccc(F)c(F)c3)n2)cc1 | . | 1% | ? | 14% | ? | 2.9µM* | ? | ? | 4.1µM*
CC(=O)c1cccc(NC(=O)Nc2nnc(N3CCCC3)s2)c1 | -1% | . | 24% | 1% | 6% | -15% | . | . | .
COc1ccc(N2CCN(C(=O)Cn3cnc4sc(C)c(S(=O)(=O)N5CCC(C)CC5)c4c3=O)CC2)cc1 | 1% | . | 22% | -1% | -10% | 1%[9.27 µM] | . | . | .
Cc1cc(/C=C\c2ccc3cc(N(C)C)ccc3[n+]2C)c(C)n1-c1ccccc1 | -11% | . | . | -1% | 5.8µM* | 1.2µM* | ? | 7.3µM* | 1.3µM*

# Gathered by group: those above containing a Cl atom (2)
canonical_smiles | ClpP mod | p53 reactivation | miR-21 FLuc | Nrf2 activator | A549 tox-1 | Nrf2 block | FLuc enzyme inh | A549 tox-2 | Nrf2 ARE inh
O=C(c1ccc2c(=O)n3c(nc2c1)CCCCC3)N1CCN(c2cccc(Cl)c2)CC1 | 0% | . | 7% | 6% | 3% | -13% | . | . | .
COc1ccc(Cl)cc1Nc1nc(-c2sc(NC(=O)C(C)(C)C)nc2C)cs1 | -9% | 1% | ? | 0% | -2% | 4.1µM* | -20% | -9% | 1.8µM*
